Earlier results as cited in patent publication US20250340562A1, “CHROMANE IMAGING LIGANDS” (The General Hospital Corporation, priority 2021, published 2025).

By UniProt entry, the sequences of proteins in these tests, tags left out. Residues count along the entry.
UniProt P31421, 19-872 limits assumed: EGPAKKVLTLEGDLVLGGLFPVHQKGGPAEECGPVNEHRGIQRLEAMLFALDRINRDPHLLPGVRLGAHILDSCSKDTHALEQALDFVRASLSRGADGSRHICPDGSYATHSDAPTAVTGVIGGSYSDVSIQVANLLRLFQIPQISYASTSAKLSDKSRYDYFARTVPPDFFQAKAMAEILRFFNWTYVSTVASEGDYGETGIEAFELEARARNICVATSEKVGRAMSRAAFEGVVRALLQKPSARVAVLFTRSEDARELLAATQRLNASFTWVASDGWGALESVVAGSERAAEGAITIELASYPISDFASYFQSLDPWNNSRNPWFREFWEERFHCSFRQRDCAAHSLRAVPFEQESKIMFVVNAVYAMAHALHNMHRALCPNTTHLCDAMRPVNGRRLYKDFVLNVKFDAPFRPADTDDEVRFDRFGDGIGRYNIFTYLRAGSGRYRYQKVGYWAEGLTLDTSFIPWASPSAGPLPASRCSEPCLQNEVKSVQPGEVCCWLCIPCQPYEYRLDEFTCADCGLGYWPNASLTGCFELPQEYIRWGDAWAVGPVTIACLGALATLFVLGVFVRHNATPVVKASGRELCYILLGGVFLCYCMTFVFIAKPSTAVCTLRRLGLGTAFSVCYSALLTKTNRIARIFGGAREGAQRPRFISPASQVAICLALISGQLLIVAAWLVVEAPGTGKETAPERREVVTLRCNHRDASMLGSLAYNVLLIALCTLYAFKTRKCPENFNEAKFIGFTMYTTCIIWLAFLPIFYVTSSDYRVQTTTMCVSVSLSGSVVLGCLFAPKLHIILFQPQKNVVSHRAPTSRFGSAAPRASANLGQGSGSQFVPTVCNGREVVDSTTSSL

Biological target: mGluR2 (Rattus norvegicus, UniProt P31421)
Conditions: rat brain, earlier tracers; tested as the radiolabelled form; cited from earlier work

## COc1ccc(-c2cc(C(N)=O)ncc2OCc2ccnc(C)c2)c(F)c1
  SUVmax: 0.7

## COc1ccc(-c2cc(C(N)=O)ncc2OCc2ccn(C)n2)c(F)c1
  SUVmax: 1.2

## COc1ccc(-c2cc(C(N)=O)nc3cc(CN4C(=O)CCC4=O)ccc23)c(F)c1
  SUVmax: 0.3
